Drawing on patent US4179337A, “Non-immunogenic polypeptides” (priority 1977, dated 1979), this text covers catalase enzymatic activity for 1 substance.

The data set in a line: Enzymatic activity of PEG-catalase (method of Beers and Sizer). It is filed as biochemical. From the text: Catalase--assayed by the method of Beers and Sizer (J. Biol. Chem., 195, 133 (1952)).

For the substance “Hydrogen-peroxide: hydrogen-peroxide oxidoreductase [Unmodified catalase]”, the catalase enzymatic activity was 41,500 units/mg. protein.
